Assay results: PubChem BioAssay (NCI)
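Cells were grown in 96-well plates and exposed to each compound for 48 hours at five concentrations; endpoints were interpolated linearly between bracketing concentrations, or set to the highest concentration if not reached. Abbreviation: GI50, concentration required for 50% inhibition of growth. Definition used: TGI = concentration required for complete inhibition of growth.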

How the values were obtained:
Test in all cases: NCI-60 cell line screen, 48 h
ACHN renal = tested on: ACHN renal
CAKI-1 renal = tested on: CAKI-1 renal
NCI-H226 lung = tested on: NCI-H226 lung
UO-31 renal = tested on: UO-31 renal
OVCAR-8 ovarian = tested on: OVCAR-8 ovarian
KM12 colon = tested on: KM12 colon
SR leukemia = tested on: SR leukemia
MOLT-4 leukemia = tested on: MOLT-4 leukemia
NCI/ADR-RES ovarian = tested on: NCI/ADR-RES ovarian
MDA-MB-231 breast = tested on: MDA-MB-231 breast
SF-268 CNS = tested on: SF-268 CNS
SF-539 CNS = tested on: SF-539 CNS
TK-10 renal = tested on: TK-10 renal
HL-60(TB) leukemia = tested on: HL-60(TB) leukemia
SK-MEL-28 melanoma = tested on: SK-MEL-28 melanoma
OVCAR-4 ovarian = tested on: OVCAR-4 ovarian
SN12C renal = tested on: SN12C renal
NCI-H522 lung = tested on: NCI-H522 lung
UACC-62 melanoma = tested on: UACC-62 melanoma
DU-145 prostate = tested on: DU-145 prostate
OVCAR-5 ovarian = tested on: OVCAR-5 ovarian
SF-295 CNS = tested on: SF-295 CNS
M14 melanoma = tested on: M14 melanoma
A498 renal = tested on: A498 renal
LOX IMVI melanoma = tested on: LOX IMVI melanoma
MDA-N = tested on: MDA-N
MALME-3M melanoma = tested on: MALME-3M melanoma
SNB-75 CNS = tested on: SNB-75 CNS
SW-620 colon = tested on: SW-620 colon
K-562 leukemia = tested on: K-562 leukemia
PC-3 prostate = tested on: PC-3 prostate
IGROV1 ovarian = tested on: IGROV1 ovarian
MDA-MB-435 = tested on: MDA-MB-435
SNB-19 CNS = tested on: SNB-19 CNS
HOP-92 NSCLC = tested on: HOP-92 NSCLC
COLO 205 colon = tested on: COLO 205 colon
BT-549 breast = tested on: BT-549 breast
A549 NSCLC = tested on: A549 NSCLC
NCI-H23 lung = tested on: NCI-H23 lung
NCI-H322M lung = tested on: NCI-H322M lung
HCT-116 colon = tested on: HCT-116 colon
HS 578T breast = tested on: HS 578T breast
OVCAR-3 ovarian = tested on: OVCAR-3 ovarian
RXF 393 renal = tested on: RXF 393 renal
786-0 renal = tested on: 786-0 renal
RPMI-8226 leukemia = tested on: RPMI-8226 leukemia
SK-MEL-5 melanoma = tested on: SK-MEL-5 melanoma
EKVX NSCLC = tested on: EKVX NSCLC
SK-MEL-2 melanoma = tested on: SK-MEL-2 melanoma
T-47D breast = tested on: T-47D breast
U251 CNS = tested on: U251 CNS
HT29 colon = tested on: HT29 colon
HCC-2998 colon = tested on: HCC-2998 colon
NCI-H460 lung = tested on: NCI-H460 lung
MCF7 breast = tested on: MCF7 breast
CCRF-CEM leukemia = tested on: CCRF-CEM leukemia
HCT-15 colon = tested on: HCT-15 colon
HOP-62 NSCLC = tested on: HOP-62 NSCLC
UACC-257 melanoma = tested on: UACC-257 melanoma
SK-OV-3 ovarian = tested on: SK-OV-3 ovarian

`CCCCCCCCCCCCCCCC[C@@H]1C[N+](C)(C)CCO[P@](C)(=O)O1` showed a GI50 (ACHN renal) of 11.8 µM, a TGI (ACHN renal) of 24.1 µM and a GI50 (CAKI-1 renal) of 11.4 µM. The TGI (CAKI-1 renal) was 23.9 µM, the GI50 (NCI-H226 lung) was 15 µM and the TGI (NCI-H226 lung) was 33.8 µM. It also gave a GI50 (UO-31 renal) of 14.3 µM, a TGI (UO-31 renal) of 27.5 µM and a GI50 (OVCAR-8 ovarian) of 12.2 µM. It also gave a TGI (OVCAR-8 ovarian) of 27.5 µM, a GI50 (KM12 colon) of 10.7 µM and a TGI (KM12 colon) of 22.8 µM. The GI50 (SR leukemia) was 4.43 µM, the TGI (SR leukemia) was 19.4 µM and the GI50 (MOLT-4 leukemia) was 3.81 µM. For the same compound, the TGI (MOLT-4 leukemia) was 14.9 µM, the GI50 (NCI/ADR-RES ovarian) was 14 µM and the TGI (NCI/ADR-RES ovarian) was 33.1 µM. It also gave a GI50 (MDA-MB-231 breast) of 15.2 µM, a TGI (MDA-MB-231 breast) of 30 µM and a GI50 (SF-268 CNS) of 12.3 µM. It also gave a TGI (SF-268 CNS) of 25.8 µM, a GI50 (SF-539 CNS) of 11.8 µM and a TGI (SF-539 CNS) of 24.4 µM. It also gave a GI50 (TK-10 renal) of 11.5 µM, a TGI (TK-10 renal) of 23.9 µM and a GI50 (HL-60(TB) leukemia) of 1.54 µM. For the same compound, the TGI (HL-60(TB) leukemia) was 3.56 µM, the GI50 (SK-MEL-28 melanoma) was 14.1 µM and the TGI (SK-MEL-28 melanoma) was 27.1 µM. For the same compound, the GI50 (OVCAR-4 ovarian) was 5.78 µM, the TGI (OVCAR-4 ovarian) was 18.5 µM and the GI50 (SN12C renal) was 18.2 µM. The TGI (SN12C renal) was 35.1 µM, the GI50 (NCI-H522 lung) was 3.69 µM and the TGI (NCI-H522 lung) was 17.1 µM. It also gave a GI50 (UACC-62 melanoma) of 11 µM, a TGI (UACC-62 melanoma) of 30 µM and a GI50 (DU-145 prostate) of 11.2 µM. For the same compound, the TGI (DU-145 prostate) was 23.4 µM, the GI50 (OVCAR-5 ovarian) was 11.8 µM and the TGI (OVCAR-5 ovarian) was 24.2 µM. It also gave a GI50 (SF-295 CNS) of 14.3 µM, a TGI (SF-295 CNS) of 30.7 µM and a GI50 (M14 melanoma) of 7.34 µM. The TGI (M14 melanoma) was 20.5 µM, the GI50 (A498 renal) was 12 µM and the TGI (A498 renal) was 24.7 µM. It also gave a GI50 (LOX IMVI melanoma) of 6.19 µM, a TGI (LOX IMVI melanoma) of 19.4 µM and a GI50 (MDA-N) of 13 µM. For the same compound, the TGI (MDA-N) was 26.3 µM, the GI50 (MALME-3M melanoma) was 13.1 µM and the TGI (MALME-3M melanoma) was 26 µM. The GI50 (SNB-75 CNS) was 11.8 µM, the TGI (SNB-75 CNS) was 24.4 µM and the GI50 (SW-620 colon) was 19.1 µM. For the same compound, the TGI (SW-620 colon) was 47.1 µM, the GI50 (K-562 leukemia) was 6.37 µM and the TGI (K-562 leukemia) was 24 µM. It also gave a GI50 (PC-3 prostate) of 4.55 µM, a TGI (PC-3 prostate) of 16.1 µM and a GI50 (IGROV1 ovarian) of 3.79 µM. It also gave a TGI (IGROV1 ovarian) of 15.8 µM, a GI50 (MDA-MB-435) of 14.3 µM and a TGI (MDA-MB-435) of 27.8 µM. For the same compound, the GI50 (SNB-19 CNS) was 14.5 µM, the TGI (SNB-19 CNS) was 28.2 µM and the GI50 (HOP-92 NSCLC) was 6.86 µM. It also gave a TGI (HOP-92 NSCLC) of 27 µM, a GI50 (COLO 205 colon) of 9.55 µM and a TGI (COLO 205 colon) of 21.7 µM. The GI50 (BT-549 breast) was 14.5 µM, the TGI (BT-549 breast) was 29.5 µM and the GI50 (A549 NSCLC) was 12.4 µM. It also gave a TGI (A549 NSCLC) of 27.5 µM, a GI50 (NCI-H23 lung) of 13.3 µM and a TGI (NCI-H23 lung) of 26.5 µM. For the same compound, the GI50 (NCI-H322M lung) was 15 µM, the TGI (NCI-H322M lung) was 28.6 µM and the GI50 (HCT-116 colon) was 5 µM. The TGI (HCT-116 colon) was 21.2 µM, the GI50 (HS 578T breast) was 4.35 µM and the TGI (HS 578T breast) was 35.2 µM. For the same compound, the GI50 (OVCAR-3 ovarian) was 10.7 µM, the TGI (OVCAR-3 ovarian) was 22.6 µM and the GI50 (RXF 393 renal) was 10.9 µM. It also gave a TGI (RXF 393 renal) of 24.5 µM, a GI50 (786-0 renal) of 13.1 µM and a TGI (786-0 renal) of 25.8 µM. For the same compound, the GI50 (RPMI-8226 leukemia) was 2.89 µM, the TGI (RPMI-8226 leukemia) was 12.8 µM and the GI50 (SK-MEL-5 melanoma) was 9.21 µM. The TGI (SK-MEL-5 melanoma) was 21.4 µM, the GI50 (EKVX NSCLC) was 14.2 µM and the TGI (EKVX NSCLC) was 28.4 µM. For the same compound, the GI50 (SK-MEL-2 melanoma) was 15.3 µM, the TGI (SK-MEL-2 melanoma) was 29.4 µM and the GI50 (T-47D breast) was 2.91 µM. It also gave a TGI (T-47D breast) of 16 µM, a GI50 (U251 CNS) of 14.6 µM and a TGI (U251 CNS) of 28.5 µM. It also gave a GI50 (HT29 colon) of 4.7 µM, a TGI (HT29 colon) of 16.6 µM and a GI50 (HCC-2998 colon) of 4.88 µM. It also gave a TGI (HCC-2998 colon) of 18.1 µM, a GI50 (NCI-H460 lung) of 15 µM and a TGI (NCI-H460 lung) of 35.3 µM. It also gave a GI50 (MCF7 breast) of 10.7 µM, a TGI (MCF7 breast) of 23.9 µM and a GI50 (CCRF-CEM leukemia) of 5.5 µM. It also gave a TGI (CCRF-CEM leukemia) of 19.6 µM, a GI50 (HCT-15 colon) of 10 µM and a TGI (HCT-15 colon) of 22.6 µM. For the same compound, the GI50 (HOP-62 NSCLC) was 15.7 µM, the TGI (HOP-62 NSCLC) was 30 µM and the GI50 (UACC-257 melanoma) was 10.8 µM. The TGI (UACC-257 melanoma) was 23.8 µM, the GI50 (SK-OV-3 ovarian) was 13.9 µM and the TGI (SK-OV-3 ovarian) was 26.8 µM.
